By UniProt entry, the sequences of proteins in these tests, tags left out.
UniProt Q8NET8, whole entry: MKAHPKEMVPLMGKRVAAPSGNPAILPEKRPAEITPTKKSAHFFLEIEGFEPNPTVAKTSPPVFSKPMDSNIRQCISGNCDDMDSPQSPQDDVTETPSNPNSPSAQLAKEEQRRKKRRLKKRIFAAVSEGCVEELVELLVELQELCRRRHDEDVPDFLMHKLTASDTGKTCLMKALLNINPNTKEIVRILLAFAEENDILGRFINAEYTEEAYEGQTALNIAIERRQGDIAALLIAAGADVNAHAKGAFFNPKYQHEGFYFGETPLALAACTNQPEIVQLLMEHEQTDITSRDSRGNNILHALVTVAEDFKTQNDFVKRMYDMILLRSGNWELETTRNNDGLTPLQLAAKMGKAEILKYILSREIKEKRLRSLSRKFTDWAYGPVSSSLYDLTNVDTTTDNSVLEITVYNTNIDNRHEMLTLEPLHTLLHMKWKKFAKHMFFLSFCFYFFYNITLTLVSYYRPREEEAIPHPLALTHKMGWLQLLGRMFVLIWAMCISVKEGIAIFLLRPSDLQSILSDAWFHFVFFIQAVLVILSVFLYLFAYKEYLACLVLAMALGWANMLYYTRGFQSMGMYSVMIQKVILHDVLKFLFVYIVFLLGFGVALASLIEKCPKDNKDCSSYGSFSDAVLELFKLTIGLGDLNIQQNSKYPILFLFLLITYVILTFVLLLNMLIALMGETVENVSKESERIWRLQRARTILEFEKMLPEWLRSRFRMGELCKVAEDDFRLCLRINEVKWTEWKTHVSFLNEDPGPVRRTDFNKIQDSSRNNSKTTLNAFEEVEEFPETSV
UniProt Q8K424, whole entry: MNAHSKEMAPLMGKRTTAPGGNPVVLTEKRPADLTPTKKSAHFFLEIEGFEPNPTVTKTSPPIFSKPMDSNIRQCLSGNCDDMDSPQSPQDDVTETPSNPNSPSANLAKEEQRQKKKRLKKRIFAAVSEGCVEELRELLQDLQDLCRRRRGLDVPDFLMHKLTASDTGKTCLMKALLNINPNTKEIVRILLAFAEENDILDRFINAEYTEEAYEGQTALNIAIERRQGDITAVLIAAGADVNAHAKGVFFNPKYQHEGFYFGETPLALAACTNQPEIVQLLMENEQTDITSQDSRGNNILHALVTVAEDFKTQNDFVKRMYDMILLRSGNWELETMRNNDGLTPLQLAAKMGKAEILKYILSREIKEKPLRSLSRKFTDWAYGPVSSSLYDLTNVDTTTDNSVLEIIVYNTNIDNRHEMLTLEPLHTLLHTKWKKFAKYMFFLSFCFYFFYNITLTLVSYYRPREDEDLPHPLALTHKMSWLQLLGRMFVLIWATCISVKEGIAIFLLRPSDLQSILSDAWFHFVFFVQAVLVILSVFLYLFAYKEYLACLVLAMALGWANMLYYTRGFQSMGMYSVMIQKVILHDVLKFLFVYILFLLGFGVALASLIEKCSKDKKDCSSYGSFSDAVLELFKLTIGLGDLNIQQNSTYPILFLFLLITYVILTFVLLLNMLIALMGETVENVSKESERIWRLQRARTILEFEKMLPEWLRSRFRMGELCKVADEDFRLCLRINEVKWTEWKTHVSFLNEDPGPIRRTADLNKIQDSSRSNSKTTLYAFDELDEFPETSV
UniProt Q8NER1, whole entry: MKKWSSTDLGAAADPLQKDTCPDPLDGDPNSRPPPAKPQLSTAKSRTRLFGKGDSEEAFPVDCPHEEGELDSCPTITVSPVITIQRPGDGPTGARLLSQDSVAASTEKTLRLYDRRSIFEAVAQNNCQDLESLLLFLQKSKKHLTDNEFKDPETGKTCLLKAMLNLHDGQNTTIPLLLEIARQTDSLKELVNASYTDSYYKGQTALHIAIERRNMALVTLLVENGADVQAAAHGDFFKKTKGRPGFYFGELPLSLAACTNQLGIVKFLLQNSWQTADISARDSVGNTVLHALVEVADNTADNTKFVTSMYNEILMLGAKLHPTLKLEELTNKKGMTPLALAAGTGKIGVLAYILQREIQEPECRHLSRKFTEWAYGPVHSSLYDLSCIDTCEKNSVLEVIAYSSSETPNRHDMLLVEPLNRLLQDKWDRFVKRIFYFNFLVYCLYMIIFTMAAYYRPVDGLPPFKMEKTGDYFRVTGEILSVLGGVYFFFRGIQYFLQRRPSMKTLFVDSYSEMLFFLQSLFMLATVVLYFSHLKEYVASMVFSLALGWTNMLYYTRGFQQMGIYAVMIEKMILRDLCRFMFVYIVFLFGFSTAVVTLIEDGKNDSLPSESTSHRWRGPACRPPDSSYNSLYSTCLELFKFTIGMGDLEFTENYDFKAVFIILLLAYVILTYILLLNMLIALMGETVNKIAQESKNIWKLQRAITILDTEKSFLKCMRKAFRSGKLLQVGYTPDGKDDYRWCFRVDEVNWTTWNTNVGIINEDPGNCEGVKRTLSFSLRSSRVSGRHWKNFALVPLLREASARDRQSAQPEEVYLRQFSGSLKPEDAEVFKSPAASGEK
UniProt Q9EPK8, whole entry: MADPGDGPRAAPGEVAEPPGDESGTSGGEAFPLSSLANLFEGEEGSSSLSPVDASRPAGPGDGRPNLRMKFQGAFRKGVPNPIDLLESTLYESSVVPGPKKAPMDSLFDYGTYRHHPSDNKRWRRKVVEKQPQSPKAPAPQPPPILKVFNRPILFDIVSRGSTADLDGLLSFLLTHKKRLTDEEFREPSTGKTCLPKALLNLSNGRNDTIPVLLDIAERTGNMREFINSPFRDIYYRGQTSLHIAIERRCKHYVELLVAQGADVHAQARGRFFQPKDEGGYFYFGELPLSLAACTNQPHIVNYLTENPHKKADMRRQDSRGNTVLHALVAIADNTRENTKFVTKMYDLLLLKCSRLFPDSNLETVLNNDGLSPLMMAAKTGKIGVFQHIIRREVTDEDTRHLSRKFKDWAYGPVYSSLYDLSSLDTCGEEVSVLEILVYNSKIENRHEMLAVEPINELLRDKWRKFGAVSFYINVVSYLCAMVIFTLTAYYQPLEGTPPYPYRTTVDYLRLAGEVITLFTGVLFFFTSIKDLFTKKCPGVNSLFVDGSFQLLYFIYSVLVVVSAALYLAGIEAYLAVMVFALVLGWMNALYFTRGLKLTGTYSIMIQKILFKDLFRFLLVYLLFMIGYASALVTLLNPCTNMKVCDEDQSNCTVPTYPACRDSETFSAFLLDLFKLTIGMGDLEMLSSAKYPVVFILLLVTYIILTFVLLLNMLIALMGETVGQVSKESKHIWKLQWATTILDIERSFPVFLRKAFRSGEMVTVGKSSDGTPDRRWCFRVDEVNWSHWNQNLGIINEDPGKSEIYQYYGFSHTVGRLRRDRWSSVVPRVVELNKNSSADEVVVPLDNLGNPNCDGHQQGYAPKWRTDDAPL
UniProt O75762, whole entry: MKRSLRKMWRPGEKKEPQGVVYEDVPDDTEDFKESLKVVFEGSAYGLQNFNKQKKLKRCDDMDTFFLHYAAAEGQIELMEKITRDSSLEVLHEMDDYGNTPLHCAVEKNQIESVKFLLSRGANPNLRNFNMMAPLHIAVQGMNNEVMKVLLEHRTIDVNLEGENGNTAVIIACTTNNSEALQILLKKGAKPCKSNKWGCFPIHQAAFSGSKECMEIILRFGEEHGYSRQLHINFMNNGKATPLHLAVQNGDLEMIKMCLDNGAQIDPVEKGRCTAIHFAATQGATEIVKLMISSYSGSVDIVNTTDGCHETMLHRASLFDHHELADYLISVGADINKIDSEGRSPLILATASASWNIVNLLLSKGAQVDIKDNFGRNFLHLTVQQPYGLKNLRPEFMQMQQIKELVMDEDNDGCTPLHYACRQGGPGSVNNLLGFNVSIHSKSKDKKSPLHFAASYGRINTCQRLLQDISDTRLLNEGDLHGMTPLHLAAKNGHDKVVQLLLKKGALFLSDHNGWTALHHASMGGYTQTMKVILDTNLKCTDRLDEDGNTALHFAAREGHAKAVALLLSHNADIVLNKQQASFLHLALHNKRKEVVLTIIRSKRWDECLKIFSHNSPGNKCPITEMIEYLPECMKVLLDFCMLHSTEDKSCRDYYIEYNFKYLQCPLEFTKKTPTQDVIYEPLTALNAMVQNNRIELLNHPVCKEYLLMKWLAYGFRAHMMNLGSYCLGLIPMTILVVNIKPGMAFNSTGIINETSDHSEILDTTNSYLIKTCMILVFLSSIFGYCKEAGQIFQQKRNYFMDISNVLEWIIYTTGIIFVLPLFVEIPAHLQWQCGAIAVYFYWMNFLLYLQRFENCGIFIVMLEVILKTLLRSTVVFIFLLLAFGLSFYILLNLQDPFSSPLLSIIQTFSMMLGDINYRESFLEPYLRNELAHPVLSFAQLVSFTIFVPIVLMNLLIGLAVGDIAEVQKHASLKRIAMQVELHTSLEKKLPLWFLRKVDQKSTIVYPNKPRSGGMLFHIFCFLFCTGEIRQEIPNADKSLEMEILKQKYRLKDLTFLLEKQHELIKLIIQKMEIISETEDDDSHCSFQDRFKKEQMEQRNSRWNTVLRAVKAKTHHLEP

In EP4834884A1, “TRPV3 INHIBITOR, AND PREPARATION THEREFOR AND USE THEREOF” (dated 2026):

Tests used:
hTRPV3 = hTRPV3 (Homo sapiens, UniProt Q8NET8); test: Whole-cell patch-clamp inhibition of hTRPV3 in transfected HEK-293 cells; settings: hTRPV3 in HEK-293 cells, agonist 2-APB (3 mM), holding potential -60 mV, antagonist pre-administered 1 minute
Description: Human embryonic kidney cells (HEK-293) (obtained from the Cell Bank of the Chinese Academy of Sciences) were cultured in Dulbecco's Modified Eagle's Medium (DMEM, obtained from Gibco) supplemented with 10% fetal bovine serum (FBS, obtained from PAM) in an incubator with 95% air and 5% carbon dioxide at 37°C. The HEK-293 cells was transfected with Human TRPV3 (hTRPV3) plasmids using a calcium phosphate transfection solution comprising two types of solutions: solution A containing 250 mM CaCl2 in pure water and solution B containing 1.5 mM Na2HPO4, 140 mM NaCl and 50 mM HEPES (with pH adjusted to 6.96). All the electrophysiological data were recorded 24 hours post transfection at the room temperature using an Axon 200B, with a holding potential of -60 mV. […] The Cells were immersed in a standard extracellular solution containing 150 mM NaCl, 5 mM KCl, 10 mM glucose, 2 mM CaCl2, 1 mM MgCl2 and 10 mM HEPES (with pH adjusted to 7.4 with Tris-base). The TRPV3 agonist 2-APB (3 mM), the TRPV1 agonist capsaicin (1 µM), the TRPV4 agonist GSK1016790A (100 nM) as well as each of the antagonists were diluted with a Ca^2+-free extracellular solution containing 150 mM NaCl, 5 mM KCl, 10 mM glucose and 10 mM HEPES (with pH adjusted to 7.4 with Tris-base) to prevent Ca^2+-induced channel desensitization. The Data were collected at 10 kHz and filtered at 2 kHz. Channels were repeatedly stimulated with agonists to ensure complete channel sensitization. Each of the antagonists was pre-administered for 1 minute, and then co-administered in the presence of an agonist. In addition, the TRPA1 agonist AITC (10 µM) and its antagonist (0.01-100 µM, approximately 3-fold dilution) were diluted with an agonist solution containing 150 mM NaCl, 5 mM KCl, 1 mM MgCl2, 10 mM glucose and 10 mM HEPES (with pH adjusted to 7.4 with Tris-base). TRPA1 was first stimulated to be openned with the agonist, followed by coadministration in the presence of the agonist. The Raw data were analyzed with a software of Origin to generate the curves. The values of IC50 values calculated using the Hill equation.

[1] = system: carvacrol-induced pruritus model in mice; test: Carvacrol-induced pruritus model in mice, topical application; settings: 50 µl applied on depilated nape 30 minutes before intradermal 2% carvacrol, vehicle control 74.25±13.76
Text: Carvacrol as a skin sensitizer has been proven to induce pruritus in mice by activating TRPV3 channels. […] Therefore, the carvacrol-induced pruritus model in mice can be used to evaluate the targeting of compounds for inhibiting TRPV3 and the pharmacological efficacy against pruritus.
64 SPF-grade C57BL/6 mice (male, 6-8 weeks old) were used as laboratory animals. After adaptive feeding, the mice were randomly divided into 8 groups: a normal control group, a model group, a vehicle control, a positive control group, a Compound 18 (2% concentration) group, a Compound 18 (8% concentration) group, a Compound 25 (2% concentration) group and a Compound 25 (8% concentration) group, with 8 mice per group. Two days before the experiment, a 2 x 3 cm^2 area on the nape of the animals was depilated. 30 minutes before modeling, the respective test compound or vehicle was applied on the depilated area on the nape according to the corresponding group in an amount of 50 µl per animal. 30 minutes after administration of the test substance, all the animals except the blank control group received an intradermal injection of 2% carvacrol at the nape at an injection dose of 50 µl per animal. An acute pruritus model was established, with scratching the head with forepaws, scratching the trunk with hind paws, and biting various body parts by the mouth as pruritus indicators. Sustained scratching of the modeling area by hind paws was counted as one scratch. If the animal paused, licked its paw, or put its hind paws down during scratching, it was counted as a second scratch when scratching again. The number of scratches during the observation period was observed and recorded, with the number of scratches at each time point being counted at 5-minute intervals, and the total number of scratches within 30 minutes was summarized.
Raw data were analyzed using a software of GraphPad, and were statistically analyzed using one-way ANOVA. […]

mTRPV3 = mTRPV3 (Mus musculus, UniProt Q8K424); test: Whole-cell patch-clamp inhibition of mTRPV3 (same method); settings: mTRPV3, same conditions as hTRPV3
Description: (§1) Human embryonic kidney cells (HEK-293) (obtained from the Cell Bank of the Chinese Academy of Sciences) were cultured in Dulbecco's Modified Eagle's Medium (DMEM, obtained from Gibco) supplemented with 10% fetal bovine serum (FBS, obtained from PAM) in an incubator with 95% air and 5% carbon dioxide at 37°C. The HEK-293 cells was transfected with Human TRPV3 (hTRPV3) plasmids using a calcium phosphate transfection solution comprising two types of solutions: solution A containing 250 mM CaCl2 in pure water and solution B containing 1.5 mM Na2HPO4, 140 mM NaCl and 50 mM HEPES (with pH adjusted to 6.96). All the electrophysiological data were recorded 24 hours post transfection at the room temperature using an Axon 200B, with a holding potential of -60 mV. […] The Cells were immersed in a standard extracellular solution containing 150 mM NaCl, 5 mM KCl, 10 mM glucose, 2 mM CaCl2, 1 mM MgCl2 and 10 mM HEPES (with pH adjusted to 7.4 with Tris-base). […] The Raw data were analyzed with a software of Origin to generate the curves. The values of IC50 values calculated using the Hill equation.
(§2) The values of IC50 (nM) of representative compounds of the present invention for inhibition of mTRPV3 (mouse TRPV3) and other TRP channels such as hTRPV1, mTRPV4 and hTRPA1 were also determined under the same conditions using the above described methods and materials. […]

hTRPV1 = hTRPV1 (Homo sapiens, UniProt Q8NER1); test: Whole-cell patch-clamp inhibition of hTRPV1 (same method); settings: hTRPV1, agonist capsaicin (1 µM)
Description: as §1, §2

mTRPV4 = mTRPV4 (Mus musculus, UniProt Q9EPK8); test: Whole-cell patch-clamp inhibition of mTRPV4 (same method); settings: mTRPV4, agonist GSK1016790A (100 nM)
Description: as §1, §2

hTRPA1 = hTRPA1 (Homo sapiens, UniProt O75762); test: Whole-cell patch-clamp inhibition of hTRPA1 (same method); settings: hTRPA1, agonist AITC (10 µM)
Description: as §1, §2

| IC50 (hTRPV3) [µM] | Compound | also measured |
| --- | --- | --- |
| 0.066 | 1-(2-((5-methylpyrid-2-yl)oxy)ethyl)-2,5-bis(trifluoromethyl)-1H-benzo[d]imidazole | pruritus numbers (total number of scratches within 30 minutes) ([1]; 8% concentration): 42.75±11.42 |
| 0.051 | Cc1ccc(OCCn2c(C(F)(F)F)nc3cc(C(F)(F)F)ccc32)cc1 | IC50 (mTRPV3): 0.073 µM; IC50 (hTRPV1): 1.62 µM; IC50 (mTRPV4): 3.89 µM; IC50 (hTRPA1): > 300 µM |
| 0.098 | Cc1ccc2c(c1)nc(C(F)(F)F)n2CCOc1ccc(C(F)(F)F)cc1 | – |
| 0.085 | Cc1ccc(OCCn2c(C(F)(F)F)nc3cc(Cl)ccc32)cc1 | pruritus numbers (total number of scratches within 30 minutes) ([1]; 2% concentration): 13.00±6.11; pruritus numbers (total number of scratches within 30 minutes) ([1]; 8% concentration): 9.25±2.80 |
| 1.1 | Cc1ccc(OCCn2c(C(F)(F)F)nc3cc(F)c(F)cc32)cc1 | – |
| 0.1 | Cc1ccc(OCCn2c(C(F)(F)F)nc3cc(Cl)c(Cl)cc32)cc1 | – |
| 2.44 | Cc1ccc(OCCn2c(C(F)(F)F)nc3cc(F)ccc32)cc1 | – |

| Compound | IC50 (hTRPV3) [µM] | also measured |
| --- | --- | --- |
| Cc1ccc(OCCn2c(C(F)(F)F)nc3cc(C#N)ccc32)cc1 | 0.22 | – |
